Measured values: BindingDB's records for patent US10413550 (The Institute of Cancer Research, 2019)

Amino acid sequences for entries named in this document (tags omitted).
UniProt A9CPF9, whole entry: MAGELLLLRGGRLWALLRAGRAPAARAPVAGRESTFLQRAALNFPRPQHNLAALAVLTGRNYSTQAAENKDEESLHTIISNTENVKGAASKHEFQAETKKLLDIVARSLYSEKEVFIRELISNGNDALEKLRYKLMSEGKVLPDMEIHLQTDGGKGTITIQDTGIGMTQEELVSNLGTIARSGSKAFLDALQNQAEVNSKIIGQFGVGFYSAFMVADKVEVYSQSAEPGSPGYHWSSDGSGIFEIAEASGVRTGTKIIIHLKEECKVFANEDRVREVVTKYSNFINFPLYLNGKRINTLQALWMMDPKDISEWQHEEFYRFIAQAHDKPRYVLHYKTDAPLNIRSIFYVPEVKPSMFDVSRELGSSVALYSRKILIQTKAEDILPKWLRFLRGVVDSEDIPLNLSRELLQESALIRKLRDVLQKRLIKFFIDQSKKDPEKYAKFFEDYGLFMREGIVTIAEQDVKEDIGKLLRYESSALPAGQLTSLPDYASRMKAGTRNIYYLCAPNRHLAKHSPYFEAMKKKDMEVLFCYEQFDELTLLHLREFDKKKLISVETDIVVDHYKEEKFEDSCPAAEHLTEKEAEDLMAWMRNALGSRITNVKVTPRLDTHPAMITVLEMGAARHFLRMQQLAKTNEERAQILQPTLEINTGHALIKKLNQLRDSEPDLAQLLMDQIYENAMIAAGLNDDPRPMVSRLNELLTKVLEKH
UniProt P08238, whole entry: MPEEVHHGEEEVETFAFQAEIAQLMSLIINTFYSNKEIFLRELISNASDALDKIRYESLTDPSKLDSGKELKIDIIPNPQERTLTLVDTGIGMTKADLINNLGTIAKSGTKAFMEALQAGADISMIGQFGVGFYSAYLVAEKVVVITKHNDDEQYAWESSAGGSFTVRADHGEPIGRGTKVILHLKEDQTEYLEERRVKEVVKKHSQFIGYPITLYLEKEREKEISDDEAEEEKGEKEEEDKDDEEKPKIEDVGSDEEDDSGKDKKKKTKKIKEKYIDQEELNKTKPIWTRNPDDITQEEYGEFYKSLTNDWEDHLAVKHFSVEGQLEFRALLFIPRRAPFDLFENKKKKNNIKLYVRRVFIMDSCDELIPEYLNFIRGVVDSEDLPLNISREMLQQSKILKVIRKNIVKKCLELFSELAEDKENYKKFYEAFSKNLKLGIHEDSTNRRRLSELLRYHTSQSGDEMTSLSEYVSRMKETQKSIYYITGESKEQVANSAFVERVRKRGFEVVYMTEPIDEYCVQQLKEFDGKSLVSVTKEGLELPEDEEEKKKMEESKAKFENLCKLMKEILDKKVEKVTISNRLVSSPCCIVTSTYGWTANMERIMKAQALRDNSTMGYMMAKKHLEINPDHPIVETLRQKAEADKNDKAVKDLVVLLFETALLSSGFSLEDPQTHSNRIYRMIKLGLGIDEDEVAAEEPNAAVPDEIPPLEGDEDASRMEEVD
UniProt P14625, whole entry: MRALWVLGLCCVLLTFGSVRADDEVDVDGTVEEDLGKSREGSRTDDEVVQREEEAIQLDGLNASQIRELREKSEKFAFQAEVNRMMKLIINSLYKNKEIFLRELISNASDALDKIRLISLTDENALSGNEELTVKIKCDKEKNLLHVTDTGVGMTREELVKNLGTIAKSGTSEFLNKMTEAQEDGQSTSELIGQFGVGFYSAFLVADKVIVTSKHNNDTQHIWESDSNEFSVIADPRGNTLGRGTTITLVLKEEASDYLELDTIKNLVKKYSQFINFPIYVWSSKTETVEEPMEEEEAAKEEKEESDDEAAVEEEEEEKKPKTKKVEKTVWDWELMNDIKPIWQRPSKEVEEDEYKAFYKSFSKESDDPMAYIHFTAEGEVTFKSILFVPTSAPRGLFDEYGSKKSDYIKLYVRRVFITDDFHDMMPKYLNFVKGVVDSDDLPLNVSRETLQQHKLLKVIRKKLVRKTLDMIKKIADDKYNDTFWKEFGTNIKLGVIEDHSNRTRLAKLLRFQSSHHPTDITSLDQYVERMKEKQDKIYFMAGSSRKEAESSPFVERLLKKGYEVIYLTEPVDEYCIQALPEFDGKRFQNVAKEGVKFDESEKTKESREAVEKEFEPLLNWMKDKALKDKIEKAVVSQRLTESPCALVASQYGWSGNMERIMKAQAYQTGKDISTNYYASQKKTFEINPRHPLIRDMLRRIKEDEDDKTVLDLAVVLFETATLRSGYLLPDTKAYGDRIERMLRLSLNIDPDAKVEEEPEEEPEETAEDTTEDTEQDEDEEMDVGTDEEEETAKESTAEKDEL

Target: Endoplasmin/Heat shock protein 75/Heat shock protein HSP 90-alpha/Heat shock protein HSP 90-beta (Homo sapiens, UniProt A9CPF9+P07900+P08238+P14625)
Assay: Malachite Green ATPase Assay
Method: Method 1. Dilute test compounds to 500 μM in AR water (DMSO concentration will be 2.5%). Transfer 2.5 μl of these compounds directly from the daughter plate to the assay plate, giving a final assay concentration of 100 μM. […] Column 1 in the assay plate contains no compound, as a negative control. […] 2. […] 3. […] 4. […] 5. […] 6. First thing in the morning prepare the Malachite Green Reagent. […] 7. […] 8. […] 9. […] 11.

For COc1ccc(-c2c(C)noc2-c2cc(-c3cccnc3)c(O)cc2O)cc1 [US10413550, Example 12], which IC50 is on record?
Its IC50 is > 10 µM.
